# Membrane permeability of cyclic peptides

Values of Townsend et al. 2020, doi:10.26434/chemrxiv.13335941.v1, as listed in CycPeptMPDB.

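The data file gives no further conditions (lipid, pH, time, direction or concentration), and values from different papers need not be comparable. Other peptides of the study may be missing here. Entries at the database's floor value (log10 P of -10) are not listed.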

PAMPA measures passive passage through an artificial lipid membrane. Permeability is given as log10 of P in cm/s; higher (less negative) is more permeable.

| compound | PAMPA (log10 cm/s) |
|---|---|
| CC(C)C[C@@H]1C(=O)N(C)[C@@H](CC(C)C)C(=O)N2CCC[C@H]2C(=O)N(C)[C@H](CC(C)C)C(=O)N[C@@H](Cc2ccccc2)C(=O)N2CCC[C@H]2C(=O)N(C)[C@H](C)C(=O)N1C | -5.83 |
| CC(C)C[C@@H]1NC(=O)[C@@H](C)N(C)C(=O)[C@@H]2CCCN2C(=O)[C@H](Cc2ccccc2)NC(=O)[C@H](CC(C)C)N(C)C(=O)[C@@H]2CCCN2C(=O)[C@H](CC(C)C)N(C)C1=O | -5.42 |
| CC(C)C[C@@H]1NC(=O)[C@H](CC(C)C)N(C)C(=O)C[C@H](Cc2ccccc2)NC(=O)[C@H](Cc2ccccc2)NC(=O)[C@H](CC(C)C)N(C)C(=O)[C@H]2CCCN2C1=O | -5.31 |
| CC(C)C[C@H]1NC(=O)[C@H]2CCCN2C(=O)[C@H](CC(C)C)N(C)C(=O)[C@@H](CC(C)C)NC(=O)[C@@H](C)N(C)C(=O)[C@H](Cc2ccccc2)NC1=O | -5.20 |
| CC(C)C[C@@H]1C(=O)N2CCC[C@@H]2C(=O)N[C@H](CC(C)C)C(=O)N[C@@H](Cc2ccccc2)C(=O)N2CCC[C@H]2C(=O)N(C)[C@H](C)C(=O)N[C@H](CC(C)C)C(=O)N1C | -5.31 |
| CCCN1CC(=O)N(C)[C@H](CC(C)C)C(=O)N(C)[C@H](CC(C)C)C(=O)N2CCC[C@@H]2C(=O)N(C)[C@H](CC(C)C)C(=O)N[C@@H](Cc2ccccc2)C1=O | -5.28 |
| CC(C)C[C@H]1NC(=O)CN(Cc2ccccc2)C(=O)[C@@H](C)N(C)C(=O)[C@@H]2CCCN2C(=O)[C@H](Cc2ccccc2)NC(=O)[C@H](CC(C)C)N(C)C(=O)[C@H]2CCCN2C1=O | -5.32 |
| CC(C)C[C@@H]1NC(=O)C[C@H](Cc2ccccc2)NC(=O)[C@H]2CCCN2C(=O)[C@H](Cc2ccccc2)NC(=O)[C@@H](CC(C)C)N(C)C(=O)[C@H]2CCCN2C(=O)C[C@H](Cc2ccccc2)NC1=O | -5.88 |
| CC(C)C[C@@H]1C(=O)N[C@@H](Cc2ccccc2)CC(=O)N2CCC[C@@H]2C(=O)N(C)[C@H](CC(C)C)C(=O)N[C@@H](Cc2ccccc2)C(=O)N(C)[C@H](C)C(=O)N1C | -5.58 |
| CC(C)C[C@H]1C(=O)N(Cc2ccccc2)CC(=O)N2CCC[C@@H]2C(=O)N(C)[C@@H](CC(C)C)C(=O)N[C@@H](Cc2ccccc2)C(=O)N2CCC[C@H]2C(=O)N(C)[C@H](C)C(=O)N1C | -5.27 |
| CC(C)C[C@@H]1NC(=O)[C@H](C)N(C)C(=O)[C@H](Cc2ccccc2)NC(=O)[C@H](CC(C)C)NC(=O)[C@@H]2CCCN2C(=O)[C@@H](CC(C)C)NC1=O | -5.42 |
| CC(C)C[C@@H]1C(=O)N(Cc2ccccc2)CC(=O)N2CCC[C@H]2C(=O)N(C)[C@H](CC(C)C)C(=O)N[C@@H](Cc2ccccc2)C(=O)N2CCC[C@@H]2C(=O)N[C@@H](C)C(=O)N1C | -5.81 |
| CCCN1CC(=O)N(Cc2ccccc2)CC(=O)N(C)[C@H](CC(C)C)C(=O)N2CCC[C@@H]2C(=O)N(C)[C@@H](CC(C)C)C(=O)N[C@@H](Cc2ccccc2)C(=O)N2CCC[C@@H]2C1=O | -5.73 |
| CC(C)C[C@@H]1NC(=O)[C@H](CC(C)C)N(C)C(=O)[C@@H](C)N(C)C(=O)[C@H]2CCCN2C(=O)[C@H](Cc2ccccc2)NC(=O)[C@H](CC(C)C)N(C)C(=O)[C@H]2CCCN2C1=O | -5.10 |
| CC(C)C[C@@H]1NC(=O)[C@@H](C)NC(=O)[C@H]2CCCN2C(=O)[C@H](Cc2ccccc2)NC(=O)CN(Cc2ccccc2)C(=O)[C@H]2CCCN2C(=O)[C@@H](CC(C)C)NC1=O | -6.72 |
| CCCN1CC(=O)N[C@H](CC(C)C)C(=O)N[C@H](CC(C)C)C(=O)N2CCC[C@@H]2C(=O)N[C@H](CC(C)C)C(=O)N[C@@H](Cc2ccccc2)C(=O)N2CCC[C@H]2C1=O | -6.77 |
| CCCN1CC(=O)N[C@@H](CC(C)C)C(=O)N[C@@H](CC(C)C)C(=O)N2CCC[C@@H]2C(=O)N(Cc2ccccc2)CC(=O)N[C@@H](Cc2ccccc2)C1=O | -5.39 |
| CCCN1CC(=O)N[C@@H](CC(C)C)C(=O)N[C@@H](CC(C)C)C(=O)N2CCC[C@H]2C(=O)N(C)[C@@H](CC(C)C)C(=O)N[C@@H](Cc2ccccc2)C1=O | -5.03 |
| CC(C)C[C@H]1NC(=O)[C@@H]2CCCN2C(=O)[C@H](CC(C)C)N(C)C(=O)[C@@H](CC(C)C)NC(=O)[C@H](C)N(C)C(=O)[C@H](Cc2ccccc2)NC1=O | -5.12 |
| CC(C)C[C@@H]1C(=O)N[C@@H](Cc2ccccc2)C(=O)N[C@H](C)C(=O)N[C@H](CC(C)C)C(=O)N[C@@H](Cc2ccccc2)CC(=O)N2CCC[C@H]2C(=O)N1C | -6.75 |
| CC(C)C[C@@H]1NC(=O)[C@@H]2CCCN2C(=O)[C@H](CC(C)C)NC(=O)[C@@H](CC(C)C)N(C)C(=O)C[C@H](Cc2ccccc2)NC(=O)[C@H]2CCCN2C(=O)[C@H](Cc2ccccc2)NC1=O | -5.51 |
| CC(C)C[C@@H]1C(=O)N[C@H](CC(C)C)C(=O)N2CCC[C@H]2C(=O)N[C@H](CC(C)C)C(=O)N[C@@H](Cc2ccccc2)C(=O)N2CCC[C@H]2C(=O)N[C@@H](Cc2ccccc2)CC(=O)N1C | -5.49 |
| CC(C)C[C@@H]1NC(=O)[C@H](C)N(C)C(=O)[C@H]2CCCN2C(=O)[C@H](Cc2ccccc2)NC(=O)[C@@H](CC(C)C)N(C)C(=O)[C@H]2CCCN2C(=O)C[C@H](Cc2ccccc2)NC1=O | -6.03 |

3 of these entries, quoted again:

compound	PAMPA (log10 cm/s)
CC(C)C[C@H]1NC(=O)CN(Cc2ccccc2)C(=O)[C@@H](C)N(C)C(=O)[C@@H]2CCCN2C(=O)[C@H](Cc2ccccc2)NC(=O)[C@H](CC(C)C)N(C)C(=O)[C@H]2CCCN2C1=O	-5.32
CC(C)C[C@@H]1NC(=O)[C@H](CC(C)C)N(C)C(=O)C[C@H](Cc2ccccc2)NC(=O)[C@H](Cc2ccccc2)NC(=O)[C@H](CC(C)C)N(C)C(=O)[C@H]2CCCN2C1=O	-5.31
CC(C)C[C@@H]1NC(=O)[C@@H]2CCCN2C(=O)[C@H](CC(C)C)NC(=O)[C@@H](CC(C)C)N(C)C(=O)C[C@H](Cc2ccccc2)NC(=O)[C@H]2CCCN2C(=O)[C@H](Cc2ccccc2)NC1=O	-5.51